{"source": "patent US20130202629A1", "about": "“USES OF PHOSPHOLIPID CONJUGATES OF SYNTHETIC TLR7 AGONISTS” (The Regents of the University of California, priority 2010, published 2013)", "target": "T1, TLR7 (Homo sapiens, UniProt Q9NYK1)", "T1 sequence (Q9NYK1 27-1049)": "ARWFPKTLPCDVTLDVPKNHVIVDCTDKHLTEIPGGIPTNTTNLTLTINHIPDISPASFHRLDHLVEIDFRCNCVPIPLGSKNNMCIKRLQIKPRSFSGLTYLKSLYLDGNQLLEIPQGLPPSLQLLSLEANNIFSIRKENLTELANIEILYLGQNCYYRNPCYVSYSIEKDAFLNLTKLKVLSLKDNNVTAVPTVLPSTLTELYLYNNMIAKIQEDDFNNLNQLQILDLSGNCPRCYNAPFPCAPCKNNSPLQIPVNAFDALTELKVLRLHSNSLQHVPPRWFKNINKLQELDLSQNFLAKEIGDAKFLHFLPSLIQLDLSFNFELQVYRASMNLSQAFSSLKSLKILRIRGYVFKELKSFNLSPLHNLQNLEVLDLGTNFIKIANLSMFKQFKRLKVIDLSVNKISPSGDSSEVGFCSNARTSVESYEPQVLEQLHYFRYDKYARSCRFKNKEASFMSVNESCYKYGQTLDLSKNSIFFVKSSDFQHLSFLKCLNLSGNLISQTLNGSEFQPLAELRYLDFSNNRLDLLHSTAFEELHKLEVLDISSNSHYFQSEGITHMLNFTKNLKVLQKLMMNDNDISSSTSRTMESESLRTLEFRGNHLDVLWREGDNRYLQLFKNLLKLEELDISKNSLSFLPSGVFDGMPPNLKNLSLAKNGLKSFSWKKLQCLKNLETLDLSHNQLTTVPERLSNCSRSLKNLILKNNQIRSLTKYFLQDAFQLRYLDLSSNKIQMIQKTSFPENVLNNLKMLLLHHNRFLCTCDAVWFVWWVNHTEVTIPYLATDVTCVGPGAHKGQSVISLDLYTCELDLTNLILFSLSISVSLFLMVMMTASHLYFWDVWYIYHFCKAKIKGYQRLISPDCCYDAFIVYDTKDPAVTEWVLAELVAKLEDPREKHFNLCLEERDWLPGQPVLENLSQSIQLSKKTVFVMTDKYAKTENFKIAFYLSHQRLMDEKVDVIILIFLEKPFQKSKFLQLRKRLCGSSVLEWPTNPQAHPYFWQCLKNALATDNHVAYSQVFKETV", "assay": "Cytokine induction (IL-6, IFNalpha1; Luminex) in human PBMC", "type": "cell-based", "conditions": "18 hours, IL-6 (FIG. 3A)", "note": "Several values for one entry are separate records, joined by “and”; a condition that tells them apart may be missing. Equal values may be shown once.", "data": [{"smiles": "COCCOc1nc(N)c2nc(O)n(Cc3ccccc3)c2n1", "note": "[SM, 9-benzyl-8-hydroxy-2-(2-methoxyethoxy) adenine, reference compound]", "values": [{"measurement": "order of TLR7 conjugate potency", "value": "(4b)>(6)>(9)>/=SM>(8) and 4b>6>9>SM=8"}]}]}
